Some of the results follow.

The experiment relates to A. baumannii ATCC 17978. The experiment is described as follows: relative growth (fraction of control); higher = less inhibition. As to conditions: 50 µM.
As to `O=C(C[C@H]1CC[C@@H]2[C@H](COC[C@@H](O)CN2C(=O)c2ccncc2)O1)NCc1ccc(-c2ccccc2)cc1`, the relative growth is 1.03.
Next, `O=C(C[C@@H]1C[C@@H]2c3cc(NS(=O)(=O)c4ccc(F)cc4)ccc3O[C@@H]2[C@@H](CO)O1)NCc1cccc(F)c1`: 0.978; `Cc1ccc(S(=O)(=O)N[C@@H]2CC[C@H](CCNC(=O)CN3CCOCC3)O[C@@H]2CO)cc1`: 1.09; `CSCC[C@H](NC(=O)[C@H](Cc1c[nH]c2ccccc12)NC(=O)CCNC(=O)OC(C)(C)C)C(=O)N[C@@H](CC(=O)O)C(=O)N[C@@H](Cc1ccccc1)C(N)=O`: 1.01.
Compound `C=CCOC(=O)[C@@H]1[C@H]2C(=O)O[C@H](c3ccccc3)[C@H](c3ccccc3)N2[C@H](c2ccc(OCCOC(=O)[C@H]3C[C@H]4C(=O)N[C@@H](CCCCNC(C)=O)C(=O)N4[C@H]3c3ccc(O)cc3)cc2)[C@@]12C(=O)Nc1ccc(I)cc12` gave a relative growth of 1.09.
`CCOCc1c[nH]c(=O)[nH]c1=O` came in with a relative growth of 0.93.
With `CC(C)NNC(=O)c1ccncc1` the figure was 0.905.
Next, `CO[C@H]1CN(C)C(=O)c2cc(NC(=O)C3CC3)ccc2OC[C@H](C)N(C(=O)C2CCOCC2)C[C@@H]1C`: 1.02.
Next, `O=[N+]([O-])c1ccc(NCCNCCO)cc1`: 0.935; `O=C1c2cccc(O)c2C(=O)c2c(O)cccc21`: 1.1.
For `O=C([O-])C1=C(CSc2nnnn2CS(=O)(=O)[O-])CS[C@@H]2C(NC(=O)[C@H](O)c3ccccc3)C(=O)N12.[Na+].[Na+]` (stereo not given in full), the relative growth stood at 1.04.
Next, `CN(C)S(=O)(=O)c1ccc(CN)cc1`: 1.06; `Clc1cccc(Cc2cn3cc(-c4ccccc4)nc3s2)c1`: 1.04.
With `Cc1cccc(-c2nc3ccccc3n2CCC(C)C)c1` the figure was 0.807.
`Nn1c([C@@H](O)c2ccccc2)n[nH]c1=S` displayed a relative growth of 0.952.
Next, `COc1ccc(S(=O)(=O)N2C[C@H](O)COC[C@H]3O[C@H](CC(=O)NCCN4CCCCC4)CC[C@@H]32)cc1`: 1.11.
Compound `CC[N+](C)(CC)CCOC(=O)C(O)(c1ccccc1)C1CCCCC1.[Br-]` (stereo not given) displayed a relative growth of 1.27.
For `C=CC[C@H](CC(=O)N(CCO)Cc1ccccc1)C(=O)NCCOC(=O)[C@@H](CC=C)CC(=O)OC(C)(C)C`, the relative growth is 0.673.
`O=C1O[C@@H](c2ccccc2)[C@@H](c2ccccc2)N2[C@@H](c3ccc(OCCO)cc3)[C@]3(C(=O)Nc4ccc(C#CCCO)cc43)[C@@H](C(=O)N3CCCCCCC3)[C@H]12` yielded a relative growth of 0.941.
In turn, `C[C@H](CO)N1C[C@H](C)[C@H](CN(C)C(=O)C2CCCCC2)Oc2ncc(C#CC3(O)CCCC3)cc2C1=O` showed a relative growth of 0.904.
For the compound `O=C(N[C@@H]1CC[C@@H](CCn2cc(C3(O)CCCC3)nn2)O[C@H]1CO)C1CCOCC1`, the relative growth worked out at 1.02.
Next, `CCOC(N)=O`: 1.15.
In the case of `COc1ccc([Si](C)(C)[C@@H]2[C@@H](CCO)O[C@]3(C(=O)N(Cc4cccc(N5C(=O)COc6ccccc65)c4)c4ccccc43)[C@H]2C)cc1`, the relative growth worked out at 1.28.
Next, `CCNC(=O)C[C@H]1C=C[C@H](NC(=O)C2CCOCC2)[C@@H](CO)O1`: 0.939; `Clc1ccc2nc(Cl)cc(-c3ccccc3)c2c1`: 1.03.
Take `C[C@@H]1CN([C@@H](C)CO)C(=O)c2cc(C#CC3(O)CCCC3)cnc2O[C@H]1CN(C)S(=O)(=O)c1ccccc1`: the relative growth was 0.997.
With `CCN(CC)C(=O)[C@@]1(c2ccccc2)C[C@H]1CN.Cl` the figure was 1.25.
With `COc1ccc(CCNS(=O)(=O)c2cn(C)c(=O)n(C)c2=O)cc1` the figure was 0.971; with `COc1cccc(NC(=O)N2C[C@@H](O)COC[C@@H]3O[C@H](CC(=O)NCCCN4CCOCC4)CC[C@H]32)c1`, 1.05.
Regarding `COC(=O)/C(=C1\OC(=O)C(c2ccccc2)=C1O)c1ccccc1`, the relative growth is 1.13.
With `O=C(O)CC[C@H](NC(=O)CCn1nnc2ccccc2c1=O)C(=O)O` the figure was 1.02; with `COc1ccc([C@@H]([C@H](Cc2ccccc2)OC(C)=O)N2C[C@@H](OC(C)=O)[C@H]3C(=NO[C@@H]3c3ccccc3)[C@@H]2Cc2ccccc2)cc1`, 1.28.
The compound `COC(=O)c1ccc(Cn2cc(C(=O)NO)nn2)o1` registered a relative growth of 1.22.
With `C[C@@H]1COCS(=O)(=O)N1`, the relative growth came to 1.21.
With `O=C(O)CCC(=O)c1ccc(-c2ccccc2)cc1` the figure was 0.91.
In the case of `CN(C)C(=O)C[C@@H]1CC[C@@H](NC(=O)C2CCOCC2)[C@H](CO)O1`, the relative growth turned out to be 1.04.
`Cc1cc(=O)n2ncnc2n1CC(=O)NN` showed a relative growth of 0.995.
As to `COCC(=O)Nc1ccc2c(c1)OC[C@H](C)N(C(=O)c1ccccc1F)C[C@@H](C)[C@@H](OC)CN(C)C2=O`, the relative growth was determined as 0.967.
With `C[C@H](CO)N1C[C@H](C)[C@@H](CN(C)S(=O)(=O)c2ccc(F)cc2)Oc2cc(C#Cc3ccncc3)ccc2S1(=O)=O` the figure was 1.15; with `OC[C@H]1O[C@H](n2cnc3cncnc32)[C@@H](O)[C@@H]1O`, 0.728; with `COc1cccc(CNC(=O)C[C@H]2C=C[C@H](NC(=O)C3CCOCC3)[C@H](CO)O2)c1`, 1.06.
`O=C(C[C@H]1C=C[C@@H](NC(=O)C2CCC2)[C@H](CO)O1)NCCCN1CCOCC1` showed a relative growth of 1.
Compound `C[C@H](CO)N1C[C@H](C)[C@@H](CN(C)C(=O)Nc2cccc(Oc3ccccn3)c2)OCc2cn(nn2)CCCC1=O` came in with a relative growth of 0.994.
In the case of `N[C@@H](Cc1ccc(O)c(O)c1)C(=O)O`, the relative growth was determined as 0.907.
With `CO[C@@]12[C@@H]3N[C@@H]3CN1C1=C(C(=O)C(N)=C(C)C1=O)[C@@H]2COC(N)=O` the figure was 0.154.
Next, `C(=N\c1nc2ccccc2[nH]1)/N(c1ccccc1)c1ccccc1`: 1.17; `O=C(Cc1ccncc1)Nc1ccc2c(c1)[C@H]1C[C@@H](CC(=O)N3CCc4ccccc4C3)O[C@H](CO)[C@H]1O2`: 0.954; `CCOC(=O)c1cc2c(=O)n(C)c(=O)n(C)c2[nH]c1=O`: 1.03.
With `CN(C)c1nc2c([nH]1)c(=O)[nH]c(=O)n2C` the figure was 0.944; with `COc1ccc(-c2ccc3c(c2)O[C@H](CN(C)CC2CCOCC2)[C@@H](C)CN([C@@H](C)CO)S3(=O)=O)cc1`, 0.9; with `CCCNc1nc(=O)c(C)n[nH]1`, 0.972.
`O=c1nc[nH]c2c1ncn2[C@@H]1C[C@@H](O)[C@H](CO)O1` came in with a relative growth of 0.948.
The compound `Cc1[nH]c(=O)[nH]c(=O)c1S(=O)(=O)N1CCC(C(=O)N[C@H](C)c2ccccc2)CC1` showed a relative growth of 0.996.
Next, `CCCc1ccc2c(c1)CNCCC2`: 1.05; `O=C(C[C@@H]1CC[C@@H]2[C@H](COC[C@@H](O)CN2S(=O)(=O)c2ccc(F)cc2)O1)N[C@H]1CCN(Cc2ccccc2)C1`: 1.07; `CO[C@H]1O[C@H](CO)C(=O)C(=O)[C@@H]1N`: 0.967.
On to `C[C@@H]1CN([C@H](C)CO)S(=O)(=O)c2ccc(C3=CCCCC3)cc2O[C@@H]1CN(C)S(=O)(=O)c1cn(C)cn1`, for which the relative growth was 0.772.
The compound `C=c1ccc(S(=O)(=O)N2CCCC2)cc1=C1NN=C2c3ccccc3C(C)=NN21` returned a relative growth of 1.01.
In the case of `COC(=O)[C@H](c1ccccc1Cl)N1CCc2sccc2C1.O=S(=O)(O)O`, the relative growth was 1.16.
In the case of `O=C(N[C@H]1CC[C@@H](CC(=O)N2CCOCC2)O[C@H]1CO)c1ccccn1`, the relative growth amounted to 1.01.
For the compound `O=C([O-])Cc1ccccc1Nc1c(Cl)cccc1Cl.[Na+]`, the relative growth is 1.03.
With `COc1cc(O)cc(OC)c1OC` the figure was 1.05; with `O=C(NCCO)c1cc2ccccc2oc1=O`, 0.909.
In the case of `O=C(NC(Cc1cc(=O)[nH]c2ccccc12)C(=O)O)c1ccc(Cl)cc1` (stereo not given), the relative growth worked out at 0.8.
Next, `Cc1ncc([N+](=O)[O-])n1C[C@@H](C)O`: 1.
Next, `C[N+](C)(C)CCCCNC(=O)[C@@H]1C[C@@H]2C(=O)N3CCC[C@H]3C(=O)N2[C@@H]1c1cccc(OCCO)c1`: 1.18; `COc1cccc(S(=O)(=O)N(C)C[C@@H]2Oc3cc(C#CCC(C)C)ccc3S(=O)(=O)N([C@@H](C)CO)C[C@H]2C)c1`: 1.38; `Cn1cnc(S(=O)(=O)N2C[C@H](O)COC[C@H]3O[C@H](CC(=O)NCc4ccc(F)cc4)CC[C@@H]32)c1`: 1.02.
For `COc1cc2c(cc1-c1coc3c4c(c(OC)cc3c1=O)OC(C)(C)CC4)OCO2`, the relative growth was 0.866.
Next, `COC(=O)/C=C/C(=O)OC`: 0.87; `CN(C)CCCCNC(=O)[C@H]1C[C@H]2C(=O)N[C@@H](Cc3ccccc3)C(=O)N2[C@H]1c1cccc(OCCO)c1`: 0.924.
Take `Cc1noc(C)c1NC(=O)N(C)C[C@@H]1Oc2ncc(C#CCN(C)C)cc2C(=O)N([C@H](C)CO)C[C@@H]1C`: the relative growth was found to be 1.07.
Next, `CNC(=O)C[C@@H]1CC[C@@H]2[C@H](COC[C@@H](O)CN2C(=O)Nc2cccc(OC)c2)O1`: 0.899; `Cc1oc2ccccc2c1-c1csc(-c2ccccc2)n1`: 1.07; `CN1CCN(C(=O)C[C@H]2CC[C@H]3[C@@H](COC[C@H](O)CN3Cc3ccc(Oc4ccccc4)cc3)O2)CC1`: 1.15.
`Cn1cnc(CCNC(=O)C[C@H]2CC[C@@H]3[C@H](COC[C@H](O)CN3C(=O)C3CC3)O2)c1` returned a relative growth of 1.11.
Next, `NNC(=O)Oc1ccccc1`: 0.976; `Cc1nc2sccn2c(=O)c1CCN1CCC(=C(c2ccc(F)cc2)c2ccc(F)cc2)CC1`: 0.982.
Compound `O=C(C[C@H]1CC[C@H]2[C@@H](COC[C@@H](O)CN2Cc2cc(F)ccc2F)O1)N[C@H]1CCN(Cc2ccccc2)C1` returned a relative growth of 0.971.
`Cc1ccc(NC(=O)Cc2coc3ccc(C(C)C)cc23)cc1` showed a relative growth of 0.772.
In turn, `COCCNC(=O)C[C@@H]1CC[C@H]2[C@@H](COC[C@H](O)CN2C(=O)Nc2ccc3c(c2)OCO3)O1` showed a relative growth of 0.945.
With `CCOC(=O)C1=C(C)NC(C)=C(C(=O)OC)C1c1cccc(Cl)c1Cl` (stereo not given) the figure was 0.827; with `CC(C)(C)OC(=O)CC[C@]1(C(=O)NCc2ccccc2)N=C(c2ccc(OCCCO)cc2)O[C@H]1c1ccccc1`, 0.896.
Next, `CC1(C)C(=O)NCCN1C(=O)Cc1ccccc1`: 1; `COC(=O)C1=CO[C@@H](O[C@@H]2O[C@H](CO)[C@@H](O)[C@H](O)[C@H]2O)/C(=C\CO)[C@@H]1CC(=O)OCCc1ccc(O)cc1`: 0.801.
